Measurements taken from US8115007B2.

Tests used:
[1] = Solubility of DAP Hemisulfate in water and ethanol at 25° C.
[2] = Stability of TAP/K2-DHTA complex on exposure to air; details: exposed to air

Substance | solubility in ethanol ([1]; ethanol) | solubility in water ([1]; water) | stability (oxygen sensitivity, discoloration) [2]
2,6-diaminopyridine hemisulfate | less than 0.15% | about 1.5% | 
Tetraaminopyridinium dipotassium dihydroxyterephthalate complex |  |  | discolored to orange and then light brown within a week
